## Yeast mating assay B: variants of the scFv Ab-14

Binding partner: SARS-CoV-2 spike HR2 peptide, sequence PDVDLGDISGINAS.

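The parent was found by panning a naive human phage display library on the peptide. These sequences belong to a second round, designed from the earlier measurements on random variants of the parent. Group labels follow the data file (Ctrl: baseline library sampled from a position-specific scoring matrix, with some repeated check sequences; Rand: our label for a block that the file lists under HC and that is probably the random mutants of the ten best first-round binders; En: ensemble of fine-tuned language models; GP: Gaussian process model; GPLM: also part of the Gaussian process libraries; HC: hill climbing; Gen: genetic algorithm; Gibbs: Gibbs sampling; a sequence that several methods proposed may carry one label only). AlphaSeq pools MATa yeast showing the antibodies with MATalpha yeast showing the peptide. Pairs that bind mate more often; barcode pairs of the diploids are counted by sequencing. Scores were corrected for input abundance and mapped to Kd with protein pairs of known affinity run in the same pool. Each pool was mated in six replicate cultures.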

Ab-14 is the parent antibody, in scFv form: VH, then a (GGGGS)3 linker, then VL. The light chain is unchanged in all variants.
VH: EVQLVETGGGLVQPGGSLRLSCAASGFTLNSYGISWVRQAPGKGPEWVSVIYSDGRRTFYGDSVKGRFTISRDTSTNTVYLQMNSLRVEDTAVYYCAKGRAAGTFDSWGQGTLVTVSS
VL: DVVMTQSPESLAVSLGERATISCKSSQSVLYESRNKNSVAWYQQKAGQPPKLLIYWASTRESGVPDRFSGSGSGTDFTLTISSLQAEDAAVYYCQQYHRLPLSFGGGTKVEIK

Each variant is given by its three heavy chain CDRs, as the data file delimits them; those of the parent are GFTLNSYGIS, VIYSDGRRTFYGDSVK, GRAAGTFDS. The Kd shown is the geometric mean over detected replicates; a lower Kd is a better binder. "not detected" means that the variant was in the library but no mating with the target was seen in any replicate; the authors take this as a sign of poor binding, and no number exists. The authors averaged sequences with at least three values out of six and counted those with two or fewer as poor binders. The range of this assay differs from that of the first round, and the authors advise against merging the two. Three control strains display no target. For all heavy chain designs, 1% of the pairings with them gave a signal, with a median of 120 nM and one signal in twenty below 7.0 nM, so weak values seen in few replicates may be background. The control count says in how many pairings with the empty strains this scFv gave a signal. The parent sequence was in this pool as ten entries: three were never detected, three once, and four in most replicates, with averages from 2.2 nM to 240 nM.

| CDR-H1 | CDR-H2 | CDR-H3 | group | Kd (apparent) | seen in | signal with controls |
|---|---|---|---|---|---|---|
| GFDLDEYGIS | VIYADGRRKAYADSVK | GNVAGTFDV | En_Gen | 700 pM | 6 of 6 | 0 of 18 |
| GFTLNDYGAS | VIYHDFRRTFYADSVK | GRAALTIIS | Rand | not detected | 0 of 6 | 0 of 18 |
| GRTLNSYGIS | VIYSDGRRTFYTDSVK | GRAAGTVDS | Ctrl | not detected | 0 of 6 | 0 of 18 |
| GFTLESYGIS | VIYADGRRTFYGDSVK | GKAAGTFDA | GP_Gen | 1.7 nM | 6 of 6 | 0 of 18 |
| GFDLNRYGIS | VIYSDERRTFYGDPVK | GRAAGWFNS | Rand | not detected | 0 of 6 | 0 of 18 |
| GFDLNEYGIS | VIYADGRRTFYTDSVK | GQLAGTFDQ | En_HC | 250 pM | 6 of 6 | 0 of 18 |
| GFTVNSYGIS | VIYSDGRRTFYGDSVK | GRAAGQFDS | Ctrl | not detected | 0 of 6 | 0 of 18 |
| GFSLNEYGIS | VIYSDGRRTFYCDSVK | GPAAGTFDL | GP_HC | not detected | 0 of 6 | 0 of 18 |
| GFTLNSYGIS | VIYSDGRRTFYGDSVK | VRAYGTFDS | Ctrl | 76 nM | 1 of 6 | 0 of 18 |
| GFTLNQYGIS | VIYADGRRTFYGDSVK | GEAAGTSDS | Ctrl | not detected | 0 of 6 | 0 of 18 |
| GFNLDEYGIS | VIYADGRRTAYADSVK | GEVAGTFDI | En_Gen | 400 pM | 6 of 6 | 0 of 18 |
| GFNLNSYGIS | VIYADGRRTFYGDSVK | GRAAITFDS | Ctrl | 5.4 nM | 6 of 6 | 0 of 18 |
| GFTKNSYGIS | VIYADGRRTFYKDSVK | GRAAGTNTS | Rand | not detected | 0 of 6 | 1 of 18 |
| GFTINEYGIS | VIYSDGLRTFYGDSVK | GRAAGTFDS | Ctrl | 6.0 nM | 6 of 6 | 0 of 18 |
| GFKIDEYGIS | VIYADGMRAHYSDAVK | GVHGFNVVM | En_Gibbs | not detected | 0 of 6 | 0 of 18 |
| GFSLNSYGIS | VIYSDGRRTFYGDSVK | GKNAGTFDS | GPLM_Gen | 5.9 nM | 6 of 6 | 0 of 18 |
| GFTLGSYGIS | VIYSDGRRTFYKDSVR | GRAAGTFDS | Ctrl | 67 nM | 2 of 6 | 0 of 18 |
| GFTLNSYGIS | VIYSDGRRTFYGDAVK | GQAAGTFDS | Ctrl | 220 nM | 5 of 6 | 0 of 18 |
| GFDLNSYGIS | VIYSDGRRTFYGDNVK | GQAAGTFDS | GP_Gen | 3.5 nM | 6 of 6 | 0 of 18 |
| GFTLNEYGIS | VIYSDGRRTFYSDSVK | GRAAGCFDS | GPLM_HC | 80 nM | 4 of 6 | 0 of 18 |
| GFHLNSYGIS | VIYSDGRRTFYHDSVK | GKVAGTFDS | GP_Gibbs | 38 nM | 5 of 6 | 0 of 18 |
| GFTLNSYGIS | VIYSDGRRTFYGDSFK | GRAAGTFPS | Ctrl | 37 nM | 3 of 6 | 1 of 18 |
| GFDLNEYGIS | VIYADGKRTAYVDDVK | GENAGTFDV | En_Gen | 1.6 nM | 6 of 6 | 0 of 18 |
| GFTLNSYGIS | VIYSDGRRTFYGDSVK | GRNAGQFDS | Ctrl | not detected | 0 of 6 | 0 of 18 |
| GFTSNQYGIS | VIYSDGRRGFYSDAVK | GRCAGFFDS | Rand | not detected | 0 of 6 | 0 of 18 |
| GFSFQEYGIS | VIYADGKRTFYANTVK | GGKDAAFDI | En_Gibbs | 140 nM | 1 of 6 | 0 of 18 |
| GFDLNSYGIS | VIYSDGRRTFYKDSVK | GRLAGTFDS | GP_Gen | 4.8 nM | 6 of 6 | 0 of 18 |
| GFSLNEYGIS | VIYSDGRRTFYIDSVK | GRAAGTFDK | GP_Gen | 3.3 nM | 6 of 6 | 1 of 18 |
| GFTLNDYGIS | VIGSDGRRTFYGDSVK | GRAALTFIS | Rand | 100 nM | 1 of 6 | 1 of 18 |
| GFQLNDYGIS | VIYSDGRRTMYGDSVK | GRAAGTFDS | GP_HC | 11 nM | 6 of 6 | 1 of 18 |
| GFDLNEYGIS | VIYADGMRTAYADSVK | GNVAGTFNQ | En_Gen | 460 pM | 6 of 6 | 0 of 18 |

The remaining entries, values ahead:

| Kd (apparent) | seen in | signal with controls | CDR-H1 | CDR-H2 | CDR-H3 | group |
|---|---|---|---|---|---|---|
| 810 pM | 6 of 6 | 0 of 18 | GFDLNEYGIS | VIYADGRRTAYQDSVK | GENAGTFDV | En_Gen |
| 3.3 nM | 6 of 6 | 1 of 18 | GFPLNSYGIS | VIYADGRRTFYGDSVK | GGAAGTFDS | GP_HC |
| 17 nM | 5 of 6 | 0 of 18 | HFSLNSYGIS | VIYSDGRRTFYSDSVK | GNAAGTFDS | GP_Gibbs |
| 550 pM | 6 of 6 | 0 of 18 | GFDLNEYGIS | VIYADGKRTFYADSVK | GEVAGTFVS | En_HC |
| 23 nM | 5 of 6 | 0 of 18 | GFTLESYGIS | VIYSDGIRTFYGDSVK | GRAAGTFDS | Ctrl |
| not detected | 0 of 6 | 0 of 18 | GFDINEYGIS | VIYADGIRTVYANKFK | GDSGGIINF | En_Gibbs |
| 2.6 nM | 6 of 6 | 0 of 18 | GFTLNEYGIS | VIYSDGRRTFYSDSVK | GQYAGTFDS | GP_HC |
| 6.3 nM | 6 of 6 | 0 of 18 | GFTLNSYGIS | VIYSDGRRTFYADSVK | GRQAGTFDS | GPLM_Gen |
| 200 pM | 6 of 6 | 1 of 18 | GFDLNEYGIS | VIYADGMRTAYIDSVK | GHNAGTFDV | En_HC |
| not detected | 0 of 6 | 0 of 18 | GFTLNKYGIS | VIYSDGRRTQYGDSVK | GRAGGTFDS | Ctrl |
| 750 pM | 6 of 6 | 0 of 18 | GFDLNEYGIS | VIYADGRRTAYDDSVK | GTNAGTFDQ | En_HC |
| not detected | 0 of 6 | 0 of 18 | GFTLNSYGIS | VIYSDGRRTFYKDSVR | GRVAGTFDS | Ctrl |
| 240 pM | 6 of 6 | 0 of 18 | GFDLNEYGIS | VIYADGMRKVYADSVK | GNVAGTFDL | En_Gen |
| 5.4 nM | 6 of 6 | 0 of 18 | GFTLNSYGIS | VIYSDGRRTFYADSVK | GRAAVTFDQ | GP_HC |
| 190 nM | 6 of 6 | 0 of 18 | GFDLNEYGIS | VIYADGRRTFYADSVK | GNQAGTFFS | En_HC |
| 660 pM | 6 of 6 | 0 of 18 | GFDLEEYGIS | VIYADGRRTFYSDSVK | GETAGTFDV | En_HC |
| not detected | 0 of 6 | 0 of 18 | GFTLNDYDIS | VIYSDGERTQYIDSVK | GRAAGTFDS | Rand |
| not detected | 0 of 6 | 0 of 18 | GFTLNSYGIS | VIYSDGLRTFYGDSVK | GAACGTFDS | Ctrl |
| 3.0 nM | 5 of 6 | 0 of 18 | GFDLNSYGIS | VIYSDGRRTFYGDRVK | GNAAGTFDS | GP_Gen |
| not detected | 0 of 6 | 0 of 18 | GFTLNQYGIS | VIYSDGRRTFYADSVK | GRAAVTFDT | GP_HC |
| not detected | 0 of 6 | 0 of 18 | GFQLDEVGIS | VIYADGIRRAYASKVK | GGNGGSFDL | En_Gibbs |
| not detected | 0 of 6 | 0 of 18 | GNSLQEYGIS | VIYADGMRNQYAQSVK | GMEAGVFVY | En_Gibbs |
| 170 pM | 6 of 6 | 0 of 18 | GFDLDEYGIS | VIYADGMRTAYADSVK | GNVAGTFDF | En_Gen |
| not detected | 0 of 6 | 0 of 18 | GFTLNSGGES | VIYSDGRRTFYSDSVK | GRAGGTFDS | Rand |
| 1.5 nM | 6 of 6 | 0 of 18 | GFNLDEYGIS | VIYADGMRTFYSDNVK | GEAAGTFDI | En_HC |
| 50 nM | 6 of 6 | 0 of 18 | GFFLNEYGIS | VIYSDGRRTQYIDSVK | GRAAGTFDS | GP_HC |
| 160 pM | 6 of 6 | 0 of 18 | GFDLNEYGIS | VIYADGRRTFYSDSVK | GEAGGTFDI | En_HC |
| not detected | 0 of 6 | 0 of 18 | GMDINEYGVS | VIYADGNRTMYQDNVK | GIEGGSFVL | En_Gibbs |
| not detected | 0 of 6 | 0 of 18 | GFDLEEYGIS | VIYADGRRVAYADRVK | GIDVYGKVM | En_Gibbs |
| 230 nM | 4 of 6 | 1 of 18 | GFDLNEYGIS | VIYADGMRTFYSDSVK | GEAGGTFDV | En_HC |
| 33 nM | 4 of 6 | 0 of 18 | GFTLESYGIS | VIYSDGRRTFYGDSVK | GRAAGTFDV | GP_HC |
| not detected | 0 of 6 | 0 of 18 | GFDIDEYGIS | VIYADGKRQALINAVK | GTLSGTFIA | En_Gibbs |

The measurements come from Li et al. 2023 (doi:10.1038/s41467-023-39022-2) through the FLAb antibody collection.